The source of these data is ChEMBL document CHEMBL4715801, “Discovery of Mycobacterium tuberculosis InhA Inhibitors by Binding Sites Comparison and Ligands Prediction” (J Med Chem, 2016).

A short description of the assay: Inhibition of Mycobacterium tuberculosis InhA assessed as effect on NADH oxidation incubated for 10 mins by spectrophotometry.

As for `Cc1c(CN(C)C(=O)/C=C/c2cnc3c(c2)CCC(=O)N3)c2ccccc2n1C`, the IC50 came out at 62 µM.
